miR-21 reporter – raises the signal of a miR-21 reporter | HeLa miR-21 FLuc reporter, luciferase, 48 h | Potency, µM (highest dose often 38.3 µM), inactives show at the highest dose reporter change, positive = more light | 340,000 tested, under 10 active | AID 2288; active = well fitted rising curve with a large enough effect; inconclusive = small, poorly fitted or top-dose-only effect; inactive = no such curve, though single readings can be large or run the other way;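 note: % of control where 0% means no effect; miR-21 action dims this reporter so a rising signal means less miR-21 action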
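Using DMEM plus 10% FBS, HeLa miR-21-FLuc cells are incubated with test compounds (final up to about 40uM) for 48 hours; firefly luciferase signal is then imaged following reagent-mediated lysis.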
PTHR1 agonist – agonists of human PTHR1 parathyroid hormone receptor | Q03431 | HEK293 GP2 PTHR1 cells, GloSensor cAMP luminescence, 1 h | Potency, µM (highest dose often 115 µM), inactives show top-dose activation, most hits filed as activators | actives 0.075% (n = 410,000); further: potency means the concentration at half of the fitted maximal effect; nearly all actives have a fitted effect of over 55% in size
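HEK-293-derived GP2 cells expressing PTHR1 and a GloSensor cAMP reporter, 3,000/well, plated overnight, given luciferin plus IBMX (each 0.5 mM as added) for 1 h at 37 °C, then compound for 1 h at 37 °C. Luminescence was read after 15 min at room temperature.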
Giardia kill – kills Giardia lamblia | actives 0.15% (n = 340,000) | AID 540267 | Giardia lamblia trophozoite viability | activity change, % at 7.66 µM, hits read low; in the data active means activity change below about -80%; inconclusive means between about -30% and that limit;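 further: parasites exposed to compound for two days anaerobically before the ATP read; on the % scale 0 is the no-effect control and ±100 the full control effect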
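Viability, read as ATP luminescence: trophozoites at 100 cells/well, compound added, 48 hrs anaerobic at 37 deg C, then 15-30 min room-temperature development before reading.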
ERG Ets-DNA blk – ERG Ets/DNA interaction inhibition. actives 0.028% (n = 370,000). P11308. fluorescence polarization, His-ERG Ets domain / labelled DNA. Potency, µM (doses to about 76.9 µM), for inactives: at the top dose FP activity, negative = inhibition, hits mostly inhibitors; active means well fitted inhibition curve with a large enough effect in the polarisation, with a control signal flat; inconclusive means small, poorly fitted or top-dose-only effect, or effect the other way, or a change in a side signal; inactive means no such curve, though single readings can be large or run the other way; the % refers to the polarisation;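 further: polarization taken with two DNA probes labelled with fluorescein and Texas red; potency means the concentration at half of the fitted maximal effect; % of control where 0% means no effect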
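His-tagged ERG Ets domain (1 uM in the protein solution; 300mM KCl, 50mM Tris-HCl, 1mM EDTA, 1mM DTT, pH 7.5) received compound, then a probe mix of 5 nM fluorescein-DNA and 100nM Texas-615-DNA. Fluorescence polarization was read for both dyes.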
PINK1 modulator – changes PINK1 expression; PINK1 immunofluorescence, high-content cytometry, 24 h; Potency, µM (doses to about 76.6 µM), inactives show at the highest dose activation (PINK1 increase), hits mostly activators; actives 0.2% (n = 410,000); active means well fitted activation curve with a large enough effect; inconclusive means small, poorly fitted or top-dose-only effect; cell line not stated here; further: potency means the concentration at half of the fitted maximal effect; % of control where 0% means no effect; nearly all actives have a fitted effect of over 65% in size
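Stable cell line, 250 cells/well, 12 h attachment; compounds pinned at 5 concentrations, 24 h; CCCP control. Fixed with nuclear dye, primary antibodies 12 h at 10 degrees C, secondary plus cell stain; laser-scanning cytometer read.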
ALOX12 inh – ALOX12 (human) lipoxygenase inhibition; purified 12hLO, xylenol orange hydroperoxide absorbance; Potency, µM (series often up to 108 µM), for inactives: at the top dose activity change, negative = inhibition, hits mostly inhibitors; P18054; actives 1.1% (n = 580,000); further: potency means the concentration at half of the fitted maximal effect; on the % scale 0 is the no-effect control and ±100 the full control effect
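Hydroperoxide product was detected by ferrous iron/xylenol orange as the 573 to 405 nm absorbance ratio. Arachidonic acid at 40 uM (final) was turned over for 30 min at room temperature by 150 nM human 12hLO, pH 7.0 Hepes buffer, after 15 min compound preincubation.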
The depositor's hits bear a star; i = inactive; u = inconclusive; x = not tested or not shown; [ ] = another dose, or the depositor's remark. Most compounds without a hit are left out; they make up all but 1.3% or so of the library. Unless noted, the call rests on the fitted dose curve; in most records, active means well fitted curve in the direction sought with a large enough effect; inconclusive means small, poorly fitted or top-dose-only effect, or another doubt; inactive means no such curve, though single readings can be large; an effect the other way counts as inactive or inconclusive.

1. COC(=O)[C@]1(Cc2ccccc2)N[C@H](c2ccc(-c3cccc(Cl)c3)c(OC)c2)[C@@H]2C(=O)N(C)C(=O)[C@@H]21
2. COc1ccc(C(=O)NC(Cn2ccnc2)C(C)(C)C)cc1OC1CCN(C(C)C)CC1 (stereo not given)
3. Cc1ccc(CN2C(=O)CCC2C(=O)NCc2ccco2)cc1 (stereo not given)
4. CC1CCCCC1NC(=O)c1ccco1 (stereo not given)
5. CC1CCCC(NC(=S)NC(=O)c2ccco2)C1C (stereo not given)
Screen / compound no. | 1 | 2 | 3 | 4 | 5
ALOX12 inh | 40µM* | 0% | 374% | -12% | 32µM*
Giardia kill | 13 | -7 | -11 | -8 | -6
PTHR1 agonist | i | 28% | -3%[57.5 µM] | -21% | -11%
miR-21 reporter | x | -4% | -5% | x | x
PINK1 modulator | 4% | 0% | 1% | 0% | 9%
ERG Ets-DNA blk | -6% | 6% | -19% | -4% | -21%

6. O=C1c2ccccc2C(=O)N1c1nccs1
7. Cc1ccc(-n2sc3ccccc3c2=O)cc1S(=O)(=O)N1CCCCC1
8. O=c1c2cc(F)ccc2sn1-c1ccccc1
9. O=c1c2ccccc2sn1-c1ccc(S(=O)(=O)N2CCCCC2)cc1
10. N#Cc1ccc2c(=O)n(-c3ccccc3)sc2c1
Screen / compound no. | 6 | 7 | 8 | 9 | 10
ALOX12 inh | -15% | 0.089µM* | u | u | 0.45µM*
Giardia kill | u | -9 | -8 | -1 | x
PTHR1 agonist | -37% | i | -22% | -16%[57.5 µM] | -54%
miR-21 reporter | x | -7% | x | x | x
PINK1 modulator | 0% | 2% | 5% | 0% | -1%
ERG Ets-DNA blk | -7% | 15% | -4% | x | x

11. CN(C)S(=O)(=O)c1cccc(-n2sc3ccccc3c2=O)c1
12. O=c1c2ccccc2sn1-c1nccs1
13. CN1CCN(c2ccc(NC(=O)COc3ccccc3F)cn2)CC1
14. COc1c(Cl)cc(Cl)cc1/C=C(\C#N)c1nc(-c2ccc(Cl)cc2)cs1
15. O=C(O)c1cccc(-n2sc3ccccc3c2=O)c1
Screen / compound no. | 11 | 12 | 13 | 14 | 15
ALOX12 inh | 1.8µM* | 1.6µM* | 19% | -7% | 11µM*
Giardia kill | -5 | -12 | x | x | 3
PTHR1 agonist | -10% | -11% | x | -14% | -21%
miR-21 reporter | -2% | 0% | x | -6% | x
PINK1 modulator | 2% | 4% | x | 1% | -2%
ERG Ets-DNA blk | 4% | 1% | x | 1% | -1%

16. O=c1c2ccccc2sn1-c1cccc(Cl)c1
17. CC(=O)Nc1ccc2c(=O)n(-c3ccccc3)sc2c1
18. O=c1c2ccccc2sn1-c1ccccc1
19. O=C(COc1ccc(F)cc1)NCc1ccc2c(c1)CCN2C(=O)c1ccccc1
20. O=C(COC(=O)c1nn(-c2ccccc2)c(=O)c2ccccc12)Nc1ccccc1-c1ccccc1
Screen / compound no. | 16 | 17 | 18 | 19 | 20
ALOX12 inh | u | 1µM* | 0.56µM* | 3% | -3%
Giardia kill | x | x | -3 | x | x
PTHR1 agonist | -51% | -2% | -14% | 1% | x
miR-21 reporter | x | x | u | u | x
PINK1 modulator | u | 0% | 4% | 1% | x
ERG Ets-DNA blk | x | x | -2% | 0% | x

21. C=CCC[C@@H](Cc1ccc(F)cc1)C(=O)OC[C@@H](Cc1c[nH]c2ccccc12)NC(=O)[C@@H](CC=C)CC(=O)N(CCO)Cc1ccccc1
22. O=S(=O)(Nc1nc(-c2ccco2)c(-c2ccco2)s1)c1ccc(F)cc1F
23. CCc1cccc(NC(=S)N(CCC(C)C)C(C)c2cccs2)c1 (stereo not given)
24. Cc1cccc(C(=O)Nc2scc(CC(C)C)c2C(=O)O)c1
25. CC(C)(C)c1nnc(Nc2cccc(Cl)c2)[nH]c1=O
Screen / compound no. | 21 | 22 | 23 | 24 | 25
ALOX12 inh | -12% | 7.9µM* | 40µM* | 2% | 13%
Giardia kill | 18 | x | x | -5 | x
PTHR1 agonist | i | i | x | i | x
miR-21 reporter | x | x | x | 30% | x
PINK1 modulator | 1% | -1% | x | 14% | x
ERG Ets-DNA blk | 6% | x | x | -1% | x

26. CCOC(=O)c1ccc(Nc2nnc(C(C)(C)C)c(=O)[nH]2)cc1
27. CNC(=O)N1CCC(Oc2ncccc2C(=O)N(C)C)C1 (stereo not given)
28. NC(=O)CSc1ccc(S(=O)(=O)N2CCCCC2)cn1
29. CCOc1ccc(-c2cc(OC(=O)c3ccc(OC)cc3)c3c(C)oc(C)c3c(=O)c2)cc1
30. COc1ccc(-c2cc(OC(=O)c3cccc(Br)c3)c3c(C)oc(C)c3c(=O)c2)cc1
Screen / compound no. | 26 | 27 | 28 | 29 | 30
ALOX12 inh | 0% | 12% | u | 5% | 4.5µM*
Giardia kill | -5 | x | -3 | x | x
PTHR1 agonist | -43% | x | 14% | i | x
miR-21 reporter | -9% | x | x | -4% | x
PINK1 modulator | 25µM* | x | 1% | -5% | x
ERG Ets-DNA blk | -9% | x | 3% | -4% | x

31. Cc1ccc(NC(=O)CN(C)C(=O)c2cccc(-n3cccc3)c2)cc1
32. S=c1nc(-c2ccco2)[nH][nH]1
33. Cn1c(-c2ccco2)n[nH]c1=S
34. Cc1cccc(N(C(=O)c2nsc(Cl)c2Cl)C(C(=O)NC2CCCC2)c2ccc(O)cc2)c1C (stereo not given)
35. Cc1[nH]c(I)c(C)c1C=O
Screen / compound no. | 31 | 32 | 33 | 34 | 35
ALOX12 inh | 35µM* | 6.3µM* | u | -6% | 14µM*
Giardia kill | 11 | 7 | -2 | -2 | x
PTHR1 agonist | -32% | i | 2% | i | x
miR-21 reporter | x | 0% | -2% | 24% | x
PINK1 modulator | 3% | 1% | 0% | 45µM* | x
ERG Ets-DNA blk | -2% | 8% | 0% | -12% | x

36. Fc1ccccc1NC(=S)NNc1ncc(C(F)(F)F)cc1Cl
37. NC(=S)Nc1ncc(C(F)(F)F)cc1Cl
38. CCc1cccc(C)c1NC(=O)Cn1ccn(Cc2ccc(Cl)cc2)c(=O)c1=O
39. Cc1cc(S(=O)(=O)N(Cc2ccccn2)Cc2ccco2)ccc1-n1cnnn1
40. CCN(Cc1ccccc1)S(=O)(=O)c1ccc(S(=O)(=O)N(Cc2ccccn2)Cc2ccco2)cc1
Screen / compound no. | 36 | 37 | 38 | 39 | 40
ALOX12 inh | -24% | 40µM* | u | -6% | -20%
Giardia kill | -6 | 11 | x | -3 | 0
PTHR1 agonist | -23% | -7% | i | -9%[57.5 µM] | i
miR-21 reporter | 25% | -27% | -2% | 0% | -1%
PINK1 modulator | 16µM* | 0% | 4% | x | 11µM*
ERG Ets-DNA blk | 0% | -6% | 0% | x | -13%

Next section, overlapping the part above by 4 compounds.
37. NC(=S)Nc1ncc(C(F)(F)F)cc1Cl
38. CCc1cccc(C)c1NC(=O)Cn1ccn(Cc2ccc(Cl)cc2)c(=O)c1=O
39. Cc1cc(S(=O)(=O)N(Cc2ccccn2)Cc2ccco2)ccc1-n1cnnn1
40. CCN(Cc1ccccc1)S(=O)(=O)c1ccc(S(=O)(=O)N(Cc2ccccn2)Cc2ccco2)cc1
41. COc1ccccc1N1CCN([C@@H]2[C@H](O)[C@H](CO)O[C@@H]2CN(C)C)CC1
42. COc1ccccc1N1CCN([C@@H]2[C@H](O)[C@H](CO)O[C@@H]2CN(Cc2ccc(F)cc2)Cc2ccc(F)cc2)CC1
43. COc1ccccc1N1CCN([C@@H]2[C@H](O)[C@H](CO)O[C@@H]2CNC(C)C)CC1
44. CN(/C=C/C(=O)/C=C/N(C)c1ccccc1)c1ccccc1
45. O=C(O)C(Cc1c[nH]c2ccccc12)NS(=O)(=O)c1ccc(Cl)c(C(F)(F)F)c1 (stereo not given)
Screen / compound no. | 37 | 38 | 39 | 40 | 41 | 42 | 43 | 44 | 45
ALOX12 inh | 40µM* | u | -6% | -20% | -20% | 28µM* | 20µM* | 16µM* | 40µM*
Giardia kill | 11 | x | -3 | 0 | x | x | x | x | 2
PTHR1 agonist | -7% | i | -9%[57.5 µM] | i | x | x | x | x | i
miR-21 reporter | -27% | -2% | 0% | -1% | x | x | x | x | 1%
PINK1 modulator | 0% | 4% | x | 11µM* | x | x | x | x | 3%
ERG Ets-DNA blk | -6% | 0% | x | -13% | x | x | x | x | -8%

46. O=C(NC(Cc1c[nH]c2ccccc12)C(=O)O)C1CC1 (stereo not given)
47. O=C(NC(Cc1c[nH]c2ccccc12)C(=O)O)OCC1c2ccccc2-c2ccccc21 (stereo not given)
48. CCCCN(CC)C(=O)c1cc2c(=O)n3cccc(C)c3nc2s1
49. CN(C)C(CNC(=O)c1cccc(NS(=O)(=O)c2ccc(Br)cc2)c1)c1ccco1 (stereo not given)
Screen / compound no. | 46 | 47 | 48 | 49
ALOX12 inh | -25% | 35µM* | 0% | u
Giardia kill | x | x | 25 | 0
PTHR1 agonist | x | i | -19% | i
miR-21 reporter | x | x | -26% | x
PINK1 modulator | x | 0% | 1% | -1%
ERG Ets-DNA blk | x | x | -5% | -7%
